US6936585B2, “Corticotropin releasing factor 2 receptor agonists” (priority 2002, dated 2005)

Key:
[1] = biological target: T1, CRF2R (Homo sapiens, UniProt Q13324); assay: CRF2R agonist activation (EC50 / Emax), called comparative CRF binding; assay type: cell-based; settings: for Emax: read-out: CRF2R Emax
T1 sequence (Q13324 1-411): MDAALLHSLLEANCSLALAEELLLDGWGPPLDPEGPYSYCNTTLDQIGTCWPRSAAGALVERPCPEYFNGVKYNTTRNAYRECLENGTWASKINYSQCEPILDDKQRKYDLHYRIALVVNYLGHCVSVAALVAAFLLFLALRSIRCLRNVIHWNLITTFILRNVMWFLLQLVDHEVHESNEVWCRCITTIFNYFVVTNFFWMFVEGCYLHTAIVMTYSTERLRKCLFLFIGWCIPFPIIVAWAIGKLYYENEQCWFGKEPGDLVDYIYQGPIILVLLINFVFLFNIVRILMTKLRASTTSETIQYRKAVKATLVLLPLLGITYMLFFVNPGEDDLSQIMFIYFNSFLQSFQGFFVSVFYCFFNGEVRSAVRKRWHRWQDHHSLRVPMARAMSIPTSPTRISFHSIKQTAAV
Procedure, shortened: (§1)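 Agonism at each human CRF receptor subtype is inferred from increased cAMP relative to vehicle, using cells expressing that subtype and either lysate cAMP measurement or a cAMP response element reporter.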

[2] = biological target: T2, CRF1R (Homo sapiens, UniProt P34998); assay: CRF1R agonist activation (EC50 / Emax), called comparative CRF binding; assay type: cell-based; settings: for EC50: CRF1R EC50; for Emax: read-out: CRF1R Emax
T2 sequence (P34998 24-415): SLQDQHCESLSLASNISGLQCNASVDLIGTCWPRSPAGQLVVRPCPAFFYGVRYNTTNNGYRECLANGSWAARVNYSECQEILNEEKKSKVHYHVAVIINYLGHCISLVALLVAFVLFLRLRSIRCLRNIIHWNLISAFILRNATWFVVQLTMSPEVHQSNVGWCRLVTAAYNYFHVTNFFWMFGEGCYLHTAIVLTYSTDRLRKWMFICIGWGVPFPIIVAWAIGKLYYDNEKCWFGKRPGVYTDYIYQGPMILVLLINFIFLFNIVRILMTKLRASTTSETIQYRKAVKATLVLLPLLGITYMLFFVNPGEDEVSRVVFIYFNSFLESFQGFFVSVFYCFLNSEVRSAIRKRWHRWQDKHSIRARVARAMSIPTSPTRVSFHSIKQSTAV
Procedure, shortened: as §1

| SMILES | EC50 [1] | Emax [1] | EC50 [2] | Emax [2] |
| --- | --- | --- | --- | --- |
| CC[C@H](C)[C@H](NC(=O)[C@@H](NC(=O)[C@H](CC(=O)O)NC(=O)[C@H](CC(C)C)NC(=O)[C@H](CC(C)C)NC(=O)[C@H](CC(C)C)NC(=O)[C@H](C)NC(=O)[C@H](CC(N)=O)NC(=O)[C@H](CC(N)=O)NC(=O)[C@H](C)NC(=O)[C@H](C)NC(=O)[C@H](CCC(N)=O)NC(=O)[C@H](CCC(N)=O)NC(=O)[C@H](CCCCN)NC(=O)[C@H](CCC(=O)O)NC(=O)[C@H](CCCCN)NC(=O)[C@H](CCC(=O)O)NC(=O)[C@H](CCC(N)=O)NC(=O)[C@H](CCCCN)NC(=O)[C@H](CCC(=O)O)NC(=O)[C@@H](NC(=O)[C@H](CCC(=O)O)NC(=O)[C@@H](NC(=O)[C@H](CCSC)NC(=O)[C@H](CCCCN)NC(=O)[C@H](CCCNC(=N)N)NC(=O)[C@H](CC(C)C)NC(=O)[C@H](CC(C)C)NC(=O)[C@H](CCC(N)=O)NC(=O)[C@H](Cc1ccccc1)NC(=O)[C@@H]1CCCN1C(=O)[C@H](CC(C)C)NC(=O)[C@H](CC(=O)O)NC(=O)[C@@H](NC(=O)[C@H](CO)NC(=O)[C@@H](NC(=O)[C@@H]1CCCN1C(=O)[C@@H]1CCCN1C(=O)CNC(=O)[C@@H]1CCC(=O)N1)[C@@H](C)CC)[C@@H](C)CC)[C@@H](C)CC)[C@@H](C)CC)[C@@H](C)O)C(N)=O [compound 251] | 11.8 nM | 100% | 926 nM | 80% |
| CC[C@H](C)[C@H](NC(=O)[C@@H](NC(=O)[C@H](CC(=O)O)NC(=O)[C@H](CC(C)C)NC(=O)[C@H](CC(C)C)NC(=O)[C@H](CC(C)C)NC(=O)[C@H](CCCNC(=N)N)NC(=O)[C@H](CC(N)=O)NC(=O)[C@H](CC(N)=O)NC(=O)[C@H](C)NC(=O)[C@H](C)NC(=O)[C@H](CCC(N)=O)NC(=O)[C@H](CCC(N)=O)NC(=O)[C@H](CCCCN)NC(=O)[C@H](CCC(=O)O)NC(=O)[C@H](CCCCN)NC(=O)[C@H](CCC(=O)O)NC(=O)[C@H](CCC(N)=O)NC(=O)[C@H](CCCCN)NC(=O)[C@H](CCC(=O)O)NC(=O)[C@@H](NC(=O)[C@H](CCC(=O)O)NC(=O)[C@@H](NC(=O)[C@H](CCSC)NC(=O)[C@H](CCCCN)NC(=O)[C@H](CCCNC(=N)N)NC(=O)[C@H](CC(C)C)NC(=O)[C@H](CC(C)C)NC(=O)[C@H](CC(N)=O)NC(=O)[C@@H](NC(=O)[C@@H]1CCCN1C(=O)[C@H](CC(C)C)NC(=O)[C@H](CC(=O)O)NC(=O)[C@@H](NC(=O)[C@H](CO)NC(=O)[C@@H](NC(=O)[C@@H]1CCCN1C(=O)[C@@H]1CCCN1C(=O)CNC(=O)[C@@H]1CCC(=O)N1)[C@@H](C)CC)[C@@H](C)CC)[C@@H](C)CC)[C@@H](C)CC)[C@@H](C)CC)[C@@H](C)O)C(N)=O [compound 37] |  | 51% |  | 5% |
| CC[C@H](C)[C@H](NC(=O)[C@@H](NC(=O)[C@H](CC(=O)O)NC(=O)[C@H](CC(C)C)NC(=O)[C@H](CC(C)C)NC(=O)[C@H](CC(C)C)NC(=O)[C@H](CCCNC(=N)N)NC(=O)[C@H](CC(N)=O)NC(=O)[C@H](CC(N)=O)NC(=O)[C@H](C)NC(=O)[C@H](C)NC(=O)[C@H](CCC(N)=O)NC(=O)[C@H](CCC(N)=O)NC(=O)[C@H](CCCCN)NC(=O)[C@H](CCC(=O)O)NC(=O)[C@H](CCCCN)NC(=O)[C@H](CCC(=O)O)NC(=O)[C@H](CCC(N)=O)NC(=O)[C@H](CCCCN)NC(=O)[C@H](CCC(=O)O)NC(=O)[C@@H](NC(=O)[C@H](CCC(=O)O)NC(=O)[C@@H](NC(=O)[C@H](CCSC)NC(=O)[C@H](CCCCN)NC(=O)[C@H](CCCNC(=N)N)NC(=O)[C@H](CC(C)C)NC(=O)[C@H](CC(C)C)NC(=O)[C@H](CCC(=O)O)NC(=O)[C@@H](NC(=O)[C@@H]1CCCN1C(=O)[C@H](CC(C)C)NC(=O)[C@H](CC(=O)O)NC(=O)[C@@H](NC(=O)[C@H](CO)NC(=O)[C@@H](NC(=O)[C@@H]1CCCN1C(=O)[C@@H]1CCCN1C(=O)CNC(=O)[C@@H]1CCC(=O)N1)[C@@H](C)CC)[C@@H](C)CC)[C@@H](C)O)[C@@H](C)CC)[C@@H](C)CC)[C@@H](C)O)C(N)=O [compound 71] |  | 56% |  | 6% |
| CC[C@H](C)[C@H](NC(=O)[C@H](CCCNC(=N)N)NC(=O)[C@H](C)NC(=O)[C@H](CC(N)=O)NC(=O)[C@@H](NC(=O)[C@@H](NC(=O)[C@H](C)NC(=O)[C@H](CCC(N)=O)NC(=O)[C@H](CCC(N)=O)NC(=O)[C@H](CCCCN)NC(=O)[C@H](CCC(=O)O)NC(=O)[C@H](CCCCN)NC(=O)[C@H](CCC(=O)O)NC(=O)[C@H](CCC(N)=O)NC(=O)[C@H](CCCCN)NC(=O)[C@H](CCC(=O)O)NC(=O)[C@@H](NC(=O)[C@H](CCC(=O)O)NC(=O)[C@@H](NC(=O)[C@H](CCSC)NC(=O)[C@H](CCCCN)NC(=O)[C@H](CCCNC(=N)N)NC(=O)[C@H](CC(C)C)NC(=O)[C@H](CC(C)C)NC(=O)[C@H](Cc1c[nH]cn1)NC(=O)[C@H](CC(C)C)NC(=O)[C@@H]1CCCN1C(=O)[C@H](CC(C)C)NC(=O)[C@H](CC(=O)O)NC(=O)[C@@H](NC(=O)[C@H](CO)NC(=O)[C@@H](NC(=O)[C@@H]1CCCN1C(=O)[C@@H]1CCCN1C(=O)CNC(=O)[C@@H]1CCC(=O)N1)[C@@H](C)CC)[C@@H](C)CC)[C@@H](C)CC)[C@@H](C)CC)[C@@H](C)O)[C@@H](C)O)C(=O)N[C@@H](CC(C)C)C(=O)N[C@@H](C)C(=O)N[C@@H](CCCNC(=N)N)C(=O)N[C@H](C(N)=O)C(C)C [compound 145] |  | 69% |  | 91.3% |
| CC[C@H](C)[C@H](N)C(=O)N[C@H](C(=O)N[C@@H](CC(C)C)C(=O)N[C@@H](CO)C(=O)N[C@@H](CC(C)C)C(=O)N[C@@H](CC(=O)O)C(=O)N[C@H](C(=O)N1CCC[C@H]1C(=O)N[C@H](C(=O)NCC(=O)N[C@@H](CC(C)C)C(=O)N[C@@H](CC(C)C)C(=O)N[C@@H](CCC(N)=O)C(=O)N[C@H](C(=O)N[C@@H](CC(C)C)C(=O)N[C@@H](CC(C)C)C(=O)N[C@@H](CCC(=O)O)C(=O)N[C@@H](CCC(N)=O)C(=O)N[C@@H](C)C(=O)N[C@@H](CCCNC(=N)N)C(=O)N[C@@H](C)C(=O)N[C@@H](CCCNC(=N)N)C(=O)N[C@@H](C)C(=O)N[C@@H](C)C(=O)N[C@@H](CCCNC(=N)N)C(=O)N[C@@H](CCC(=O)O)C(=O)N[C@@H](CCC(N)=O)C(=O)N[C@@H](C)C(=O)N[C@H](C(=O)N[C@H](C(=O)N[C@@H](CC(N)=O)C(=O)N[C@@H](C)C(=O)N[C@@H](CCCNC(=N)N)C(=O)N[C@H](C(=O)N[C@@H](CC(C)C)C(=O)N[C@@H](C)C(=O)N[C@@H](CCCNC(=N)N)C(=O)N[C@H](C(N)=O)C(C)C)[C@@H](C)CC)[C@@H](C)O)[C@@H](C)O)[C@@H](C)CC)[C@@H](C)CC)C(C)C)C(C)C [compound 354] |  | 100% |  | 13.4% |
| CC[C@H](C)[C@H](NC(=O)[C@@H](NC(=O)[C@H](CC(=O)O)NC(=O)[C@H](CC(C)C)NC(=O)[C@H](CC(C)C)NC(=O)[C@H](CC(C)C)NC(=O)[C@H](CCCNC(=N)N)NC(=O)[C@H](CC(N)=O)NC(=O)[C@H](CC(N)=O)NC(=O)[C@H](C)NC(=O)[C@H](C)NC(=O)[C@H](CCC(N)=O)NC(=O)[C@H](CCC(N)=O)NC(=O)[C@H](CCCCN)NC(=O)[C@H](CCC(=O)O)NC(=O)[C@H](CCCCN)NC(=O)[C@H](CCC(=O)O)NC(=O)[C@H](CCC(N)=O)NC(=O)[C@H](CCCCN)NC(=O)[C@H](CCC(=O)O)NC(=O)[C@@H](NC(=O)[C@H](CCC(=O)O)NC(=O)[C@@H](NC(=O)[C@H](CC(C)C)NC(=O)[C@@H](NC(=O)[C@H](CCCNC(=N)N)NC(=O)[C@H](CC(C)C)NC(=O)[C@H](CC(C)C)NC(=O)[C@H](Cc1ccc(O)cc1)NC(=O)[C@@H](NC(=O)[C@@H]1CCCN1C(=O)[C@H](CC(C)C)NC(=O)[C@H](CC(=O)O)NC(=O)[C@@H](NC(=O)[C@H](CO)NC(=O)[C@@H](NC(=O)[C@@H]1CCCN1C(=O)[C@@H]1CCCN1C(=O)CNC(=O)[C@@H]1CCC(=O)N1)[C@@H](C)CC)[C@@H](C)CC)[C@@H](C)O)[C@@H](C)CC)[C@@H](C)CC)[C@@H](C)CC)[C@@H](C)O)C(N)=O [compound 252] | 22.3 nM | 100% | 226 nM | 100% |
